These are literature values, as cited in article PMC8633019.

One series addresses MRTF-A (Homo sapiens) (UniProt Q969V6). Nature of the series: actin polymerization rate.
In another series the target is profilin (Homo sapiens) (UniProt P07737). Nature of the series: actin polymerization rate.

Regarding “smooth muscle alpha-actin (from UniProt P62736)”, the Kd (usually the free concentration of one partner at which half of the binding sites on the other are occupied at equilibrium, for simple one-to-one binding) in the series with MRTF-A (Homo sapiens) was 1800 nM; in the series with profilin (Homo sapiens), 3000 nM.
